Source: article PMC7801405, “Structure, substrate specificity, and catalytic mechanism of human D-2-HGDH and insights into pathogenicity of disease-associated mutations” (Cell Discovery, 2021)

Target: T1, D-2-hydroxyglutarate dehydrogenase (D-2-HGDH) (Homo sapiens, UniProt Q8N465)
T1 construct: gene D2HGDH
T1 sequence (Q8N465 51-521): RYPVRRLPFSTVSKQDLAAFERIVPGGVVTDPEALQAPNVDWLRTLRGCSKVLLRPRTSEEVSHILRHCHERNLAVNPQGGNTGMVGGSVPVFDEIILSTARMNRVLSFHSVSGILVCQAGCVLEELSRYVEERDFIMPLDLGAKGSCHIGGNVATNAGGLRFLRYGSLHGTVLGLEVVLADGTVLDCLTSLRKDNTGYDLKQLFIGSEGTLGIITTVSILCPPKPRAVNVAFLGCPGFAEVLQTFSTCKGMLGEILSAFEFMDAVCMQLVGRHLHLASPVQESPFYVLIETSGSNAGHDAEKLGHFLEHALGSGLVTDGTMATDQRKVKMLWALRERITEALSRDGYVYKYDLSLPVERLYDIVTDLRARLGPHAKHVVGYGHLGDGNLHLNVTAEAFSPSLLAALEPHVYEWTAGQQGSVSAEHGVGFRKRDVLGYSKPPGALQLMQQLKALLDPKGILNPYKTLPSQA

## Cc1cc2nc3c(=O)[nH]c(=O)nc-3n(C[C@H](O)[C@H](O)[C@H](O)COP(=O)(O)OP(=O)(O)OC[C@H]3O[C@@H](n4cnc5c(N)ncnc54)[C@H](O)[C@@H]3O)c2cc1C [FAD]
  crystal structure (2.20 Å), co-purified: In all the structures, there is a FAD non-covalently bound to the active site
